{"sequences": {"note": "The chains behind the UniProt entries cited, without tags or fusion partners. Residues count along the entry.", "UniProt H9KVH3, 33-395 limits assumed": "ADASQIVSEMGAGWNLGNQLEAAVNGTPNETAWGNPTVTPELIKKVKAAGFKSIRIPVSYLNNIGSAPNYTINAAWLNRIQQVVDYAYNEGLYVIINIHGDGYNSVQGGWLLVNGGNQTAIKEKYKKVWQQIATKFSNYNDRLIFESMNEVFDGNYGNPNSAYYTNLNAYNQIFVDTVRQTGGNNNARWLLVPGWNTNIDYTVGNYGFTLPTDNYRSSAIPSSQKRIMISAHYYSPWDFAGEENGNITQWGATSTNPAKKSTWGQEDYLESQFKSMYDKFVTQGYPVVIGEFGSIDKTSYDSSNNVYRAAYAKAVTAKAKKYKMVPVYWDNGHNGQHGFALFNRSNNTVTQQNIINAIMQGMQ", "UniProt B3PCS3, 38-570 limits assumed": "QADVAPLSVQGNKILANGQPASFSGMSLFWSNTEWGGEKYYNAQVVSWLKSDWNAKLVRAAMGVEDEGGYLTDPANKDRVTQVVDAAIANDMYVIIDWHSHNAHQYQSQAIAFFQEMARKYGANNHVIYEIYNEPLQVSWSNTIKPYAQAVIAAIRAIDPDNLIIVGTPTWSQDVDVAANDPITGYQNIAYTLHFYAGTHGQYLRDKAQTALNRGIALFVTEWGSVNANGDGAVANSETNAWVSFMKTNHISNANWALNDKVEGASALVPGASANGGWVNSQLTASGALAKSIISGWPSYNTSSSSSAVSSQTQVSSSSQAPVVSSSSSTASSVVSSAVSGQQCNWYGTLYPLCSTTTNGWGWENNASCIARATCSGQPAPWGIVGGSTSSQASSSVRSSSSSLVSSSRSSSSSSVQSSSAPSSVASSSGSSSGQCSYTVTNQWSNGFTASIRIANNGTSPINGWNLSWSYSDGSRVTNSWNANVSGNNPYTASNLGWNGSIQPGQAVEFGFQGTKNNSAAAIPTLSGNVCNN", "UniProt P56680, whole entry": "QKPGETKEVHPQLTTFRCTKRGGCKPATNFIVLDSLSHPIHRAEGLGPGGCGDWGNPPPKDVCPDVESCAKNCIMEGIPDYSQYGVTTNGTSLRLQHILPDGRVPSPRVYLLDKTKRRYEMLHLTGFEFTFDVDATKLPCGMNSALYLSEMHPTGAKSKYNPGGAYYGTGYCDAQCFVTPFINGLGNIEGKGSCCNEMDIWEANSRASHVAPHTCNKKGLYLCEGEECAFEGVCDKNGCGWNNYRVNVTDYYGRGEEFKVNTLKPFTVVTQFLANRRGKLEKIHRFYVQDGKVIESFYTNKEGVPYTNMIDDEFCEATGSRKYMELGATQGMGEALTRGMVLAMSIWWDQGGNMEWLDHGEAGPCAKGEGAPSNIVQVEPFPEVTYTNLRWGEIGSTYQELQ", "UniProt B3PD52, 40-468 limits assumed": "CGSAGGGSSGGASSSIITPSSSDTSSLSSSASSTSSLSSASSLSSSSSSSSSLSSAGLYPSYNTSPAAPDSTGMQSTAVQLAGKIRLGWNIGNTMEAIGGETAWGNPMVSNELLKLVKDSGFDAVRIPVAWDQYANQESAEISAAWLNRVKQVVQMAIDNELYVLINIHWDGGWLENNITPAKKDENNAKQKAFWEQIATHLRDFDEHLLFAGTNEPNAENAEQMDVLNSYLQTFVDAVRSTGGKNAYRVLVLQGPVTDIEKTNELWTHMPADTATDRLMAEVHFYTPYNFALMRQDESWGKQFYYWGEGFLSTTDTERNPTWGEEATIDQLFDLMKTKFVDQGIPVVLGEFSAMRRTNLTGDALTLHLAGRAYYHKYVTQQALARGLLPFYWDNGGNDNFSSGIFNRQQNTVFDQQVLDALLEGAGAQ"}, "source": "paper PMC10755729", "about": "“A Multiplexing Activity-Based Protein-Profiling Platform for Dissection of a Native Bacterial Xyloglucan-Degrading System” (ACS Central Science, 2023)", "assay_type_in_all_cases": "biochemical", "key": {"PpXG5": {"target": "PpXG5 (Paenibacillus pabuli, UniProt H9KVH3)", "assay": "irreversible inhibition kinetics", "conditions": "read-out: KI, covalent, active-site directed", "text": "irreversible inhibition kinetics on PpXG5"}, "CjCel5B": {"target": "CjCel5B (Cellvibrio japonicus, UniProt B3PCS3)", "assay": "irreversible inhibition kinetics", "conditions": "read-out: KI, covalent, active-site directed, crystal structure of complex also solved here", "text": "irreversible inhibition kinetics on CjCel5B"}, "HiCel7B": {"target": "HiCel7B (Mycothermus thermophilus, UniProt P56680)", "assay": "irreversible inhibition kinetics", "conditions": "read-out: KI, covalent, active-site directed", "text": "irreversible inhibition kinetics on HiCel7B"}, "CjCel5D; CjGH5D": {"target": "CjCel5D; CjGH5D (Cellvibrio japonicus, UniProt B3PD52)", "assay": "irreversible inhibition kinetics, residual activity on 6C4MU-XXXG", "conditions": "read-out: KI, covalent, active-site directed, crystal structure of complex also solved here", "text": "irreversible inhibition kinetics, residual activity on 6C4MU-XXXG on CjCel5D; CjGH5D"}}}
{"smiles": "[N-]=[N+]=NCCOCCOCCOCC(=O)N[C@H]1[C@H](O)[C@@H](O)[C@H](O[C@H]2[C@H](O)[C@@H](O)[C@@H]3O[C@@H]3[C@@H]2CO)O[C@@H]1CO[C@H]1OC[C@@H](O)[C@H](O)[C@H]1O", "values": [{"measurement": "KI (inactivation)", "setting": "PpXG5", "value": "> 500", "unit": "µM"}, {"measurement": "KI (inactivation)", "setting": "CjCel5B", "value": "> 250", "unit": "µM"}, {"measurement": "KI (inactivation)", "setting": "HiCel7B", "value": 22, "unit": "µM"}, {"measurement": "KI (inactivation)", "setting": "CjCel5D; CjGH5D", "value": "> 500", "unit": "µM"}]}
